# Data from PubChem BioAssay AID588493 (Sanford-Burnham Center for Chemical Genomics, 2011).
# By UniProt entry, the sequences of proteins in these tests, tags left out.
# UniProt O00487, whole entry: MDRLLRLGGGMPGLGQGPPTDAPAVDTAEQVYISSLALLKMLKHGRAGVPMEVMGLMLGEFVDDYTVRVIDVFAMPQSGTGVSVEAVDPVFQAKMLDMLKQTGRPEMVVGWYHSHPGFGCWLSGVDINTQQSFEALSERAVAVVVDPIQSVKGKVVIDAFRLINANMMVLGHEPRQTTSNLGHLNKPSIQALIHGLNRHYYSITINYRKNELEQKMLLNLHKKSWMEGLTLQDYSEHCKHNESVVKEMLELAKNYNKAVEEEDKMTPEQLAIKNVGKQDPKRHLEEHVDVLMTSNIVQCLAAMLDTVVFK
# This is a selection; strong and weak results do not stand in their true shares. Active and inactive are the calls of the source.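 Rule for the calls: active = inhibition at 20 µM, scaled to each plate's controls, above about 33% (limit read from the data); inactive = the rest.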
# Target: 26S proteasome non-ATPase regulatory subunit 14 (Homo sapiens) (UniProt O00487)
# Test: Rpn11 (PSMD14) deubiquitinase inhibitors, primary screen, biochemical, fluorescence polarization, uHTS (AID 588493)
# Details: human 26S proteasome, Ub4-pepOG fluorescence polarization; at 20 µM; active compounds read high; 20S core pre-blocked with epoxomicin
row,Compound,inhibition
1,COc1ccc(NP(C)(=O)Oc2ccccc2OC)cc1 (stereo unspecified),inactive: -2.7%
